US10052311B2, “PPAR compounds for use in the treatment of fibrotic diseases” (INVENTIVA, priority 2014, dated 2018)

Tested on: CCl4-exposed mice
Experiment: Carbon tetrachloride (CCl4)-induced liver fibrosis in mice
Format: in vivo, mouse
Settings: 5 mg/kg/day po 22 days, vs vehicle

## CN(CCOc1ccc(CC2SC(=O)NC2=O)cc1)c1ccccn1 (stereo not shown) [rosiglitazone, reference compound]
  decrease of collagen levels (hepatic fibrosis): 54%
